# Values quoted from earlier work in patent publication US20030099599A1, “Antibiotic spray” (priority 2001, published 2003).
# Conditions: tonsil tissue; given as a reason for penicillin failure and relapse
substance,measurement,value
penicillin,antibiotic levels at the site of infection,0.67±0.3 microgr\for gr of tonsil tissue
